Reference: US7829562B2, “Sigma ligands for neuronal regeneration and functional recovery” (M's Science Corporation, priority 2003, dated 2010)

What was measured:
[1] = test system: DA rats immunized with Rat Spinal Cord Homogenate (EAE); assay: Experimental autoimmune encephalomyelitis (EAE) model of MS: clinical signs, weight, euthanasia; assay type: in vivo; settings: for Max. score / Min. score sick rats: EAE score 0-6; for Day onset: days after immunization
[2] = test system: DA rats immunized with Rat Spinal Cord Homogenate (EAE); settings: in vivo
[3] = 0.3 mg/kg, day 47 post-immunization

## COc1ccc(CCN2CCN(CCCc3ccccc3)CC2)cc1OC [AGY-94806, 1-(3,4-dimethoxyphenethyl)-4-(3-phenylpropyl) piperazine]
[1]; 0.3 mg AGY-94806 group
  weight recovery: significantly (P<0.05) more rapid weight recovery
[1]; 0.3 mg/Kg sc group
  n Rats killed: 12
  n Rats with EAE: 23/23
  Max. score: 5 (n = 2)
  Min. score sick rats: 3 (n = 1)
  Day onset: 6-11
[1]; 0.3 mg/kg
  animals that gained their motor function back at day 47: 50%
[1]; 0.3 mg/kg, 6 days after cessation of treatment, compared to vehicle and 1 mg/kg, significant 28 days after treatment
  recovery of neurological score: enhanced recovery of neurological score
[1]; 0.3 mg/kg, day 47
  number of animals with a score of 1.5: 1
  number of animals with a score of 2: 2
  number of animals with neuroscores of 1 or less: Five
[1]; [3]
  rats very significantly recovered from EAE (number): 8 out of the 11
  rats very significantly recovered from EAE (percent): 72%
[1]; 1 mg AGY-94806 group
  weight versus vehicle-treated group: no statistically significant differences in weight
[1]; 1.0 mg/Kg sc group
  n Rats killed: 12
  n Rats with EAE: 22/22
  Max. score: 5 (n = 2)
  Min. score sick rats: 3 (n = 1)
  Day onset: 5-10
[1]; 1 mg/kg
  animals that gained their motor function back at day 47: none
[1]; 1 mg/kg sc, daily for 10 days
  neurological deficit: substantial neurological deficit
[2]
  axonal damage and loss in the spinal cord: Significant axonal damage and loss
  demyelination and axonal loss in the spinal cord: statistically significant reduction of demyelination and axonal loss
